These are literature values, as cited in patent US7109245B2, “Vasoconstrictor cannabinoid analogs” (priority 2001, dated 2006).

The chains behind the UniProt entries cited, without tags or fusion partners.
UniProt P21554, whole entry, species assumed: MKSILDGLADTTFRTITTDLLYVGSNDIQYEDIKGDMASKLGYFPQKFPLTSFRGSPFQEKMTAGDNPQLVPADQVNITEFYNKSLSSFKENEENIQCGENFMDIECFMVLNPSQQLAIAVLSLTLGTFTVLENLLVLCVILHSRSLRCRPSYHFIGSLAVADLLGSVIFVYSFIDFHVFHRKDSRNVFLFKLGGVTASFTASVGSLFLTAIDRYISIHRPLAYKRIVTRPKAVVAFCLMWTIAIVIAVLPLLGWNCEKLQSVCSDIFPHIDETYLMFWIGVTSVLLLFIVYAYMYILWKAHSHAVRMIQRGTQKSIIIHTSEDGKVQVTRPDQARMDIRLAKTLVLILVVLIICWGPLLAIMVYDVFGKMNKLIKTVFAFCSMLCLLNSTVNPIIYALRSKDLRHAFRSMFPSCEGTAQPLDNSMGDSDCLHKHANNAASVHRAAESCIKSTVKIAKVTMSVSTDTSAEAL

This data set has as its target brain cannabinoid (CB1) receptor (Homo sapiens, UniProt P21554). The conditions noted are these: cited from earlier work.

Consider `C=C(C)[C@@H]1CCC(C)=C[C@H]1c1c(O)cc(CCCCC)cc1O` [cannabidiol], for which the “binding to CB1 receptor” value was “does not bind to CB1 receptors”.
